# Yeast mating assay 1: variants of the scFv Ab-14

The target is the same throughout: PDVDLGDISGINAS, from the HR2 region of SARS-CoV-2 spike.

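Phage display of a naive human antibody library on the peptide gave the parent. In library AAYL49, one, two or three CDR residues were substituted; doubles and triples were drawn at random. In AlphaSeq, yeast of one mating type display the scFv and yeast of the other type display the target. Pairs that bind mate more often; barcode pairs of the diploids are counted by sequencing. Read counts were normalised to the haploid input and turned into Kd by a linear fit to BCL2-family pairs of known affinity, for each replicate. Each pool was mated in three replicate cultures.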

The variants keep the light chain, the linker and the frameworks of Ab-14 (scFv order VH, a 15-residue (Gly4Ser)3 linker, VL).
VH: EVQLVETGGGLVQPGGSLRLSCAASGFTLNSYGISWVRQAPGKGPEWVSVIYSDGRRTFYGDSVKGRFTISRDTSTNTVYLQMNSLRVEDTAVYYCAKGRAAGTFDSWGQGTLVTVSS
VL: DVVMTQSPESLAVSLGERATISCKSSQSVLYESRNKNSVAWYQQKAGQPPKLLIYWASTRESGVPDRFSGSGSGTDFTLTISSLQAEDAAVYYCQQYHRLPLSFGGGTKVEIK

Positions count from residue 1 of the parent VH; G33I puts I in place of G. Scale: log10 of Kd in nM, estimated from mating counts; low values are strong binders. A mean of the replicates is given; it leaves out those without a signal. Where no diploid with the target was found in that replicate, the entry reads "n.d.": below detection, most likely a poor binder, though not proof of it. For reference, the parent read 0.65 as the reference entry and 4.11 (one replicate of three) as a member of this library. Empty control strains, which show no peptide, gave a signal in 15% of pairings with library AAYL49; the median was 4.06 and 95% of these signals were weaker than 2.83. No background was subtracted. Also given: how often the same scFv was detected with the empty control strains, with their mean in brackets.

changes,"replicates, log10 nM","log10 Kd (nM), mean",control signals
G33I Y52D A101M,n.d. / n.d. / n.d.,n.d.,2 of 9 (4.95)
I51R T58E D62W,n.d. / n.d. / n.d.,n.d.,0 of 9
S35W R57S F105L,n.d. / n.d. / n.d.,n.d.,1 of 9 (3.49)
D62L G99A,3.91 / 2.36 / 2.36,2.88,1 of 9 (3.21)
I34F D62F G103E,n.d. / 4.78 / n.d.,4.78,2 of 9 (2.80)
F27K Y32A G103R,n.d. / n.d. / n.d.,n.d.,1 of 9 (3.18)
G26I D54R K65S,2.53 / n.d. / n.d.,2.53,1 of 9 (3.28)
T28V G61C,2.05 / 2.30 / 2.10,2.15,2 of 9 (3.56)
F27L T58F Y60V,n.d. / n.d. / n.d.,n.d.,1 of 9 (2.36)
I34S D54H G99W,n.d. / 4.66 / n.d.,4.66,0 of 9
L29R Y32T D62G,n.d. / n.d. / n.d.,n.d.,1 of 9 (3.63)
T28C L29T D62V,n.d. / n.d. / n.d.,n.d.,1 of 9 (5.49)
S35F I51V R56K,n.d. / 1.84 / n.d.,1.84,0 of 9
F27Q G33L G61F,5.25 / 3.69 / n.d.,4.47,2 of 9 (3.64)
V64E A102W D106F,n.d. / 5.23 / n.d.,5.23,1 of 9 (4.64)
V64C G99D S107T,n.d. / n.d. / n.d.,n.d.,2 of 9 (4.30)
Y32M S53Y V64P,n.d. / n.d. / n.d.,n.d.,1 of 9 (3.08)
I34K S35L F59T,n.d. / n.d. / n.d.,n.d.,0 of 9
S35T D54H G61Q,n.d. / n.d. / n.d.,n.d.,1 of 9 (5.51)
F27H R57Q A102G,n.d. / n.d. / n.d.,n.d.,1 of 9 (3.29)
Y32L D54P G61M,n.d. / n.d. / n.d.,n.d.,0 of 9
F27C V50R G61I,n.d. / 4.87 / n.d.,4.87,4 of 9 (4.44)
Y60M S63K,n.d. / n.d. / n.d.,n.d.,0 of 9
R57Q G99L,n.d. / n.d. / n.d.,n.d.,0 of 9
D54S R57T F59A,n.d. / n.d. / n.d.,n.d.,3 of 9 (3.37)
K65V A101N F105C,4.18 / 3.86 / 4.52,4.18,2 of 9 (4.15)
F59D Y60G A102R,n.d. / n.d. / n.d.,n.d.,2 of 9 (4.30)
Y32C T58H G61K,2.33 / 2.49 / 2.47,2.43,1 of 9 (4.00)
I34G Y60E G103M,5.31 / n.d. / n.d.,5.31,2 of 9 (4.45)
G26S S53F S107E,n.d. / n.d. / n.d.,n.d.,0 of 9
L29I S31C I34P,3.51 / n.d. / n.d.,3.51,1 of 9 (4.59)
G26W I34Q G99N,n.d. / n.d. / n.d.,n.d.,0 of 9
N30T D62M T104Q,n.d. / n.d. / n.d.,n.d.,0 of 9
N30E Y60P S107W,n.d. / n.d. / n.d.,n.d.,0 of 9
G26L G99H G103D,3.49 / n.d. / n.d.,3.49,1 of 9 (5.37)

Repeated from above, the 3 best binders with a signal in all replicates:

changes	replicates, log10 nM	log10 Kd (nM), mean	control signals
T28V G61C	2.05 / 2.30 / 2.10	2.15	2 of 9 (3.56)
Y32C T58H G61K	2.33 / 2.49 / 2.47	2.43	1 of 9 (4.00)
D62L G99A	3.91 / 2.36 / 2.36	2.88	1 of 9 (3.21)

Values reported by Engelhart et al. 2022, doi:10.1038/s41597-022-01779-4 (FLAb copy).